Screens deposited in PubChem BioAssay by several laboratories.
A selection: hits, their analogues and other compounds. The true share with any hit is near 2.3%.
NRP1-CendR mod: modulators of CendR peptide binding to NRP-1, primary screen, biochemical, fluorescence polarization, uHTS; Neuropilin-1 (Homo sapiens), O14786; FAM-RPARPAR peptide binding to NRP-1; inhibition, % at 25 µM; 360,000 compounds, 0.85% hits; AID 602438, 2012;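 active means inhibition or corrected inhibition above about 18%, plus a signal ratio from 0.5 to 1.5, limit read from the data, passing the limit was not always enough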
ARFGAP1 inhibitor: inhibitors of rat ARFGAP1 GAP activity, primary screen, biochemical, fluorescence polarization, GDP tracer. inhibition, % at 16.5 µM. 360,000 compounds, 0.26% hits. Arfgap1-stimulated ARF1 GTP hydrolysis, GDP FP detection. AID 651572, 2012;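 active means inhibition above a per-plate limit, mean inhibition of low control wells plus 3 SD, cut at about 25% in these data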;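 further: 0% = DMSO wells with enzyme and 100% = wells lacking Arfgap1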
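Assay system: Rat Arfgap1 GAP domain (His6, aa 1-136), purified enzyme | Buffer or medium: HEPES 25 mM pH 7.5, NaCl 150 mM, MgCl2, DTT | Schedule: GTP hydrolysis reaction 2 h at 25 °C | Signal: FP of antibody-bound GDP Alexa 633 tracer, ex 620/em 688 nm | Measure: Percent inhibition of Arfgap1-stimulated GTP hydrolysis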
MC4R antagonist: MC4R antagonists of cAMP signaling, primary screen, cell-based, TR-FRET, antagonist arm of biased-ligand search; MC4R-expressing cells, MTII-stimulated cAMP, LANCE TR-FRET; inhibition, % at 6.5 µM; 360,000 compounds, 0.48% hits; AID 540295, 2011;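 active means inhibition above its plate's cutoff, the mean of tested wells on that plate plus 3 SD, cut at about 29% in these data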;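 further: 0% = Melanotan II alone and 100% = Melanotan II plus saturating MCL0020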
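System: U2OS-MC4R stable cell line; Technique: Eu-cAMP/anti-cAMP TR-FRET, emission 671 nm; Repeats: single well per compound; Also added: Melanotan II; Dosing: one concentration, 6.5 µM nominal; Schedule: 30-min compound, 1-h challenge, 1-h detection, room temperature.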
MC4R ag barr: MC4R agonists recruiting beta-arrestin, primary screen, cell-based, luminescence, agonist arm of biased-ligand search; U2OS MC4R beta-arrestin complementation; percent of melanotan II response, DMSO zero; activation, % at 8.9 µM; 360,000 compounds, 0.98% hits;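 active means activation above a per-plate cutoff, the mean activation of sample wells on that plate plus 3 SD, cut at about 8% in these data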
Yeast UUG start: yeast start codon fidelity modulation | S. cerevisiae UUG-firefly luciferase reporter, luminescence/redox ratio | activity score, % at 18.7 µM | 0.13% of 350,000 active | AID 602363;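 active means replicate mean at a twofold rise or more, about +100% in these data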;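 further: firefly luciferase made from a UUG start codon reports start codon fidelity; reporter light over untreated wells divided by growth signal over untreated wells; some hits fall short of that in this replicate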
ASAP1 inh: inhibitors of human ASAP1 ArfGAP activity, primary screen, biochemical, fluorescence polarization; 360,000 compounds, 0.19% hits; inhibition, % at 16.5 µM; ASAP1-stimulated ARF1 GTP hydrolysis, GDP FP detection; Arf-GAP with SH3 domain, ANK repeat and PH domain-containing protein 1 (Homo sapiens), …; in the data active means inhibition above about 25%;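 further: 0% = vehicle with enzyme and substrate and 100% = no enzyme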
* marks the source's active call; other numbers are inactive results; x = no result given.

Protein sequences, listed by entry. Tags and fused reporters are not part of them.
Neuropilin-1 (Homo sapiens), O14786, UniProt O14786, whole entry, looked up: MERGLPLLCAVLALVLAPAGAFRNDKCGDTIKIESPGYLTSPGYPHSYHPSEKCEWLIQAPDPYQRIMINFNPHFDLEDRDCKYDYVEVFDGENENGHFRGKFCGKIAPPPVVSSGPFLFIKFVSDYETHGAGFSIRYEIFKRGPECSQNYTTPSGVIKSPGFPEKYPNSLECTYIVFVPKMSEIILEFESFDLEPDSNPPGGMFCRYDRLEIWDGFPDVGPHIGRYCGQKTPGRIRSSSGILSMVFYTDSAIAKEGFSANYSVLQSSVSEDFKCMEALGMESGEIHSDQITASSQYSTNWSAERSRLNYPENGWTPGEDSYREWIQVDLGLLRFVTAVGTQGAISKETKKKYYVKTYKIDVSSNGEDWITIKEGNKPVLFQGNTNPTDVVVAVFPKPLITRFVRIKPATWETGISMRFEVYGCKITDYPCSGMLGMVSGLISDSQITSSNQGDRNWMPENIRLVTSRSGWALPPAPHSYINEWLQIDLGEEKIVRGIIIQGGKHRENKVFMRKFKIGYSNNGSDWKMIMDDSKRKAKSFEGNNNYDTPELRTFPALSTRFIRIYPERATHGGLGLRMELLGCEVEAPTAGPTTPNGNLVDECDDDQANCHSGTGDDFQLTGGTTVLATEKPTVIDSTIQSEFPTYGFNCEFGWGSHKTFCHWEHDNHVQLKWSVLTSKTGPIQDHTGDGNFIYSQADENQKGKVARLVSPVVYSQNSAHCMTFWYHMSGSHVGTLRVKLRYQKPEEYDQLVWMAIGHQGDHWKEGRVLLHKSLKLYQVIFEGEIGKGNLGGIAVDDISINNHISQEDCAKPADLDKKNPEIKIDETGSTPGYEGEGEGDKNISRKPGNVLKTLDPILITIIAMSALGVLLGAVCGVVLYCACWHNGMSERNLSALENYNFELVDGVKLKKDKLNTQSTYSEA

Codes – A = NRP1-CendR mod; B = ARFGAP1 inhibitor; C = MC4R antagonist; D = MC4R ag barr; E = Yeast UUG start; F = ASAP1 inh
compound: CC(c1ccncc1)C(C)c1ccncc1 (centres undefined)
  A = 23* | B = 1 | C = -5 | D = -2 | E = -7 | F = -7
compound: Cc1ccc(C(O)c2ccncc2)cc1 (centres undefined)
  A = -8 | B = 5 | C = 2 | D = -2 | E = x | F = 0
compound: O=C(C[C@@H]1CC[C@@H]2[C@H](COC[C@H](O)CN2S(=O)(=O)c2ccccc2)O1)Nc1ccc(-c2ccccc2)cc1
  A = x | B = x | C = x | D = x | E = -10 | F = x
compound: N#CC1(c2ccccc2)CCCN1C(=O)c1ccc(Br)cc1 (centres undefined)
  A = -8 | B = -2 | C = 5 | D = -2 | E = -8 | F = 6
compound: N#CC1(c2ccccc2)CCCN1C(=O)c1ccccc1Cl (centres undefined)
  A = 26* | B = -3 | C = 8 | D = -1 | E = -8 | F = -2
compound: O=C(CCN1C(=O)/C(=C/c2ccccc2)SC1=S)NNC(=O)c1cccnc1
  A = -7 | B = -1 | C = -3 | D = 8.8* | E = x | F = -1
compound: O=C(CCN1C(=O)/C(=C/c2ccc(F)cc2)SC1=S)NNC(=O)c1cccnc1
  A = -14 | B = 6 | C = -7 | D = 4 | E = -17 | F = -3
compound: Cc1cnccc1CNC(=O)CC1C(=O)NCCN1CC(C)(C)C (centres undefined)
  A = 26* | B = 1 | C = 6 | D = 1 | E = -7 | F = 5
compound: COc1ccc(S(=O)(=O)Nc2cccc3c2O[C@H](CN(C)Cc2ccc4c(c2)OCO4)[C@@H](C)CN([C@H](C)CO)C3=O)cc1
  A = x | B = x | C = x | D = x | E = 7 | F = x
compound: O=C(N[C@@H]1CC[C@H](CCNC(=O)C2CCC2)O[C@@H]1CO)c1ccncc1
  A = x | B = x | C = x | D = x | E = 19 | F = x

Codes – A = NRP1-CendR mod; B = ARFGAP1 inhibitor; C = MC4R antagonist; D = MC4R ag barr; E = Yeast UUG start; F = ASAP1 inh
compound: C[C@@H]1CN([C@H](C)CO)C(=O)c2cc(NC(=O)Cc3ccccc3)ccc2O[C@@H](C)CCCCO[C@H]1CN(C)S(=O)(=O)c1cn(C)cn1
  A = x | B = x | C = x | D = x | E = 3 | F = x
compound: Nc1ccn([C@@H]2O[C@H](C(=O)NCc3ccc4c(c3)OCO4)[C@@H](O)[C@H]2O)c(=O)n1
  A = 26* | B = -10 | C = x | D = x | E = 20 | F = 12
compound: Nc1ccn(CC(=O)NCCNc2ccc([N+](=O)[O-])cn2)c(=O)n1
  A = 28* | B = 5 | C = 0 | D = -1 | E = -24 | F = -2
compound: Nc1ccn(CC(=O)NCc2ccccn2)c(=O)n1
  A = 0 | B = -4 | C = 8 | D = -2 | E = -10 | F = 4
compound: COc1ccc(CNC(=O)Cn2ccc(N)nc2=O)cc1
  A = 32* | B = 3 | C = 7 | D = -2 | E = -24 | F = 0
compound: O=C(CN1CCN(Cc2ccccc2)CC1)NCCNc1ccc([N+](=O)[O-])cn1
  A = 9 | B = -7 | C = -5 | D = 0 | E = -13 | F = -2
compound: O=C(Cn1ccc(NC(=O)OCc2ccccc2)nc1=O)NCc1ccc2c(c1)OCO2
  A = 0 | B = -2 | C = 4 | D = 0 | E = -21 | F = 5
compound: Nc1ccn(CC(=O)NCc2ccc3c(c2)OCO3)c(=O)n1
  A = 21* | B = 5 | C = 3 | D = -1 | E = -7 | F = 8
compound: C[C@@H]1CN([C@H](C)CO)C(=O)Cc2cc(NC(=O)Nc3ccc(C(F)(F)F)cc3)ccc2O[C@H]1CN(C)C(=O)Nc1ccc(F)cc1
  A = x | B = x | C = x | D = x | E = -9 | F = x
compound: O=C(NC[C@H]1[C@H](c2ccccc2)[C@H](CO)N1Cc1ccccn1)C1CCC1
  A = x | B = x | C = x | D = x | E = -40 | F = x

Random excerpt: three compounds from above
Codes – A = NRP1-CendR mod; B = ARFGAP1 inhibitor; C = MC4R antagonist; D = MC4R ag barr; E = Yeast UUG start; F = ASAP1 inh
compound: O=C(CCN1C(=O)/C(=C/c2ccc(F)cc2)SC1=S)NNC(=O)c1cccnc1
  A = -14 | B = 6 | C = -7 | D = 4 | E = -17 | F = -3
compound: Nc1ccn(CC(=O)NCc2ccccn2)c(=O)n1
  A = 0 | B = -4 | C = 8 | D = -2 | E = -10 | F = 4
compound: Nc1ccn(CC(=O)NCc2ccc3c(c2)OCO3)c(=O)n1
  A = 21* | B = 5 | C = 3 | D = -1 | E = -7 | F = 8

Remaining list, next part:
| canonical_smiles | NRP1-CendR mod | ARFGAP1 inhibitor | MC4R antagonist | MC4R ag barr | Yeast UUG start | ASAP1 inh |
| --- | --- | --- | --- | --- | --- | --- |
| C[C@@H]1CN([C@H](C)CO)C(=O)Cc2cc(NS(=O)(=O)c3cccs3)ccc2O[C@@H]1CN(C)CC1CC1 | x | x | x | x | 22 | x |
| Cc1cccc(OCCCC(=O)Nc2ccc(N3CCCCC3)cc2)c1 | -4 | 5 | 5 | 11* | 3 | -5 |
| COc1ccc(OCCCC(=O)Nc2ccc(N3CCCCC3)cc2)cc1 | -5 | -4 | 2 | -1 | x | 2 |
| O=C(CCCOc1ccccc1)Nc1ccc(Br)cc1 | 2 | 4 | 6 | 8.6* | -19 | -23 |
| O=C(OCn1nnc2ccccc2c1=O)c1ccc(Br)o1 | 35* | 14 | -8 | 2 | -1 | 7 |
| O=C(OCn1nnc2ccccc2c1=O)c1ccc(O)cc1 | 10 | 0 | 10 | -2 | x | 2 |
